These are literature values, as cited in patent US20120082623A1, “SHH Regulation and Methods Thereof” (priority 2009, published 2012).

The subject of this data set is ALS patients. The conditions noted are these: cited from earlier work.

On to `Nc1nc2ccc(OC(F)(F)F)cc2s1` [Riluzole], for which the survival entry is given as “prolongs survival in ALS patients for several months”.
